# Experimental data: PubChem BioAssay AID540253 (National Center for Advancing Translational Sciences (NCATS), 2011)
# Only a part is listed here, and it is no random draw. Some tests of the compounds listed are not included; inactive here does not mean inactive elsewhere. Inconclusive results are not listed. Activity calls are given as the source filed them. The call rests on the fitted dose curve.
# Molecular target: Snurportin-1 (Homo sapiens) + GTP-binding nuclear protein Ran (Homo sapiens) + Importin subunit beta-1 (Homo sapiens) (UniProt O95149+P62826+Q14974)
# Assay: qHTS Assay for Inhibitors of RanGTP induced Rango (Ran-regulated importin-beta cargo) - Importin beta complex dissociation; further: % of control where 0% means no effect; nearly all actives have a fitted effect of over 45% in size
# Settings: Biochemical FRET Rango-importin beta; at 46.1 µM (top of the series)
row,SMILES,"activity change, negative = inhibition"
1,COc1cc(C(=O)NCC2(N(C)C)CCCCC2)c([N+](=O)[O-])cc1OC,inactive: -0.313%
2,CN(C)C1(CNC(=O)c2ccc(Br)cc2)CCCCC1,inactive: 0.37%
3,O=C(NCC1(N2CCCCC2)CCCCC1)c1cccc(Cl)c1,inactive: -14.6%
4,COc1cccc(C(=O)NCC2(N3CCCCC3)CCCCC2)c1,inactive: 6.57%
5,COc1ccc(Cl)cc1C(=O)NCC1(N(C)C)CCCCC1,inactive: -3.31%
6,O=C(OC1CN2CCC1CC2)C(CO)(c1ccccc1)c1ccccc1 (stereo not given),inactive: -3.73%
7,CC(C)Oc1ccc(C(=O)NCC2(N(C)C)CCCCC2)cc1,inactive: 1.01%
8,O=C(OCCN1CCCC1)C(O)(c1ccccc1)c1ccccc1,inactive: 8.8%
9,CN(C)c1cccc(C(=O)NCC2(N(C)C)CCCCC2)c1,inactive: -19%
10,COc1ccc(Br)c(C(=O)NCC2(N3CCCCC3)CCCCC2)c1,inactive: -20%
11,CN1[C@@H]2CC[C@H]1CC(OC(=O)C(O)(c1ccccc1)c1ccccc1)C2 (stereo not given in full),inactive: 4.48%
12,O=C(NCC1(N2CCCCC2)CCCCC1)c1cc([N+](=O)[O-])ccc1Cl,inactive: -5.11%
13,Cc1ccc(C(=O)NCC2(N3CCCCC3)CCCCC2)cc1,inactive: 15.2%
14,CCN(CC)CC(C)C(C)OC(=O)C(O)(c1ccccc1)c1ccccc1 (stereo not given),inactive: 12.5%
15,COc1cc(SC)ccc1C(=O)NCC1(N(C)C)CCCCC1,inactive: 2.5%
16,CC(C)N1C(=O)CC2(CCN(CCOC(=O)C(O)(c3ccccc3)c3ccccc3)CC2)C1=O,inactive: 5.69%
17,Cc1ccccc1C(=O)NCC1(N2CCCCC2)CCCCC1,inactive: 20.2%
18,CN(C)C1CCCC1OC(=O)C(O)(c1ccccc1)c1ccccc1 (stereo not given),inactive: -7.41%
19,CN(C)c1ccc(C(=O)NCC2(N(C)C)CCCCC2)cc1,inactive: -4.29%
20,COc1ccc(C(=O)NCC2(N(C)C)CCCCC2)cc1,inactive: -7.16%
21,Cc1cc(C(=O)NCC2(N3CCCCC3)CCCCC2)ccc1[N+](=O)[O-],inactive: -11.3%
22,CCN1CCCC(OC(=O)C2(O)c3ccccc3C=Cc3ccccc32)C1 (stereo not given),inactive: 3.96%
23,O=C(NCC1(N2CCCCC2)CCCCC1)c1cccc(Br)c1,inactive: -1.83%
24,C=CCN1CCN(CCOC(=O)C(O)(c2ccccc2)c2ccccc2)CC1,inactive: 0.0986%
25,O=C(NCC1(N2CCCCC2)CCCCC1)c1cc(F)c(F)cc1Cl,inactive: -2.03%
